{"source": "patent US20160177395A1", "about": "“BIOMARKERS FOR THE PREDICTION OF RENAL INJURY” (priority 2007, published 2016)", "key": {"[1]": {"test_system": "Sprague-Dawley Crl:CD(SD) rats", "assay": "Rat toxicity study, single, 5-day and 28-day treatment (clinical observation, clinical pathology, autopsy, organ weights, histopathology);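 note: control rats received saline intraperitoneally, and the organs examined were adrenals, brain, kidneys, liver, spleen and thymus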"}, "[2]": {"test_system": "Sprague-Dawley Crl:CD(SD) rats", "details": "rat, in vivo"}, "[3]": {"details": "females, 28-days treatment group, 4 mg/kg"}, "[4]": {"details": "males, 28-days treatment group, 4 mg/kg"}}, "note": "Entries after “also recorded” stand apart in the source; their conditions may differ. Like-named read-outs stand apart in the source and are kept apart here.", "data": [{"smiles": "COc1cccc2c1C(=O)c1c(O)c3c(c(O)c1C2=O)C[C@@](O)(C(=O)CO)C[C@@H]3O[C@H]1C[C@H](N)[C@H](O)[C@H](C)O1", "note": "[Doxorubicin]", "values": [{"measurement": "Clinical symptoms", "setting": "[1]; 28-day treatment", "value": "severe clinical symptoms and lethality when administered in a 4 mg/kg dose"}, {"measurement": "Lethality", "setting": "[1]; 28-days treatment group, originally planned dose 4 mg/kg, 4 mg/kg", "value": "Two out of 3 males and 1 out of 3 females died; also recorded: Death occurred only in Doxorubicin treated groups"}, {"measurement": "Lethality", "setting": "[1]; 28-days treatment, lowered dose 1 mg/kg, 1 mg/kg", "value": "not lethal; also recorded: No lethality was recorded after lowering the dose from 4 mg/kg to 1 mg/kg"}, {"measurement": "Died", "setting": "[1]; [3]", "value": "1/3 (Day 9)"}, {"measurement": "Moribund", "setting": "[1]; [3]", "value": "2/3 (Day 9)"}, {"measurement": "Died", "setting": "[1]; [4]", "value": "2/3 (Day 8)"}, {"measurement": "Moribund", "setting": "[1]; [4]", "value": "1/3 (Day 8)"}, {"measurement": "Body weight gain", "setting": "[2]", "value": "Decreased body weight gain was recorded in both sexes"}, {"measurement": "Clinical symptoms", "setting": "[2]", "value": "Clinical symptoms were observed"}, {"measurement": "Water consumption, males", "setting": "[2]", "value": "Significant decrease from Week 2"}]}]}
